As a reminder, the Ki is a dissociation constant, usually derived from enzyme kinetics or from competition with a known ligand. High values mean weaker binding, low ones tighter binding.

The chains behind the UniProt entries cited, without tags or fusion partners.
UniProt Q9WTR4, whole entry: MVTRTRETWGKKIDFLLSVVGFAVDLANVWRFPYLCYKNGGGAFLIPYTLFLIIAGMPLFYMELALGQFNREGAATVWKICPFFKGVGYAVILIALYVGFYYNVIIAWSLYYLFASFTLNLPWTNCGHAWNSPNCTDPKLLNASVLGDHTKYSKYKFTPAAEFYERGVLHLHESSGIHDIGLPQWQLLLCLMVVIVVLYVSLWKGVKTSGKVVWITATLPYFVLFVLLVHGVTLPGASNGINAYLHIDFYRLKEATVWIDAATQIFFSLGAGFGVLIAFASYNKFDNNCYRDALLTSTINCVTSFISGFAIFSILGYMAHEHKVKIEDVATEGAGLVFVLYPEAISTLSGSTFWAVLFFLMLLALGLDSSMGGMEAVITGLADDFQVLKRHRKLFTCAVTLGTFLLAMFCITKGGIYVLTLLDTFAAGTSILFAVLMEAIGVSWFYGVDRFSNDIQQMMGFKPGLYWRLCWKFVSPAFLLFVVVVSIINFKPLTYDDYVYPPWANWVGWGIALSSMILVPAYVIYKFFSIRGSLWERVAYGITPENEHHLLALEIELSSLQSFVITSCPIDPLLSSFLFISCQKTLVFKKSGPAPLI

The target in this assay is Norepinephrine transporter (Rattus norvegicus, UniProt Q9WTR4). In words: Inhibition of [3H]NE uptake at Norepinephrine transporter in rat parietal/occipital cortex was determined.

Structures are written as SMILES.

As for `COC(=O)[C@@H]1C2CC[C@@H](C[C@@H]1OC(=O)c1ccccc1)N2C` (single isomer, unassigned) [COCAINE], the affinity corresponds to a Ki of 190 nM.
